Measured values as given in ChEMBL document CHEMBL1148550, “4-Phenyl-4-[1H-imidazol-2-yl]-piperidine derivatives, a novel class of selective delta-opioid agonists” (Bioorg Med Chem Lett, 2006).

By UniProt entry, the sequences of proteins in these tests, tags left out. Where a name states a change or a piece, a line headed by the entry shows the natural chain unless it says otherwise.
UniProt P41143, whole entry: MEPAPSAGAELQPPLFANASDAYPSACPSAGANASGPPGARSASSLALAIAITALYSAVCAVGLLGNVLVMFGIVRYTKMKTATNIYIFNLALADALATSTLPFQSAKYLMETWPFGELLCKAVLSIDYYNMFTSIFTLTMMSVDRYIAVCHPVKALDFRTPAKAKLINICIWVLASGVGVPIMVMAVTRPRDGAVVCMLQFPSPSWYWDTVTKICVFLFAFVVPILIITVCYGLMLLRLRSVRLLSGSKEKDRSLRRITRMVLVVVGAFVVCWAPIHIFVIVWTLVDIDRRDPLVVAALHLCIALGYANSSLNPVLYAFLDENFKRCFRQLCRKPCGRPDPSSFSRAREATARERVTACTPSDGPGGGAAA
UniProt P41145: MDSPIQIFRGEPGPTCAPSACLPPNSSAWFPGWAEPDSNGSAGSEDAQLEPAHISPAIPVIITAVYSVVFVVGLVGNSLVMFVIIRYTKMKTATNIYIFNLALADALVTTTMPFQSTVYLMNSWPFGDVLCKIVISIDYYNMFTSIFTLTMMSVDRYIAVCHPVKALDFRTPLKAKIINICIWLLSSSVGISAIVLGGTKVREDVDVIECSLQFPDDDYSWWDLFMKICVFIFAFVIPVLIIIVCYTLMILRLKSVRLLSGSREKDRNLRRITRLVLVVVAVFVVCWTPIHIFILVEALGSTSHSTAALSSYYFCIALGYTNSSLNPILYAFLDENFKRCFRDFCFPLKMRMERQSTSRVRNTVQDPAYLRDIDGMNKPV

Columns and labels:
[1] = molecular target: T1, Delta-type opioid receptor (Homo sapiens, UniProt P41143); assay: Displacement of [3H]DPDPE from cloned human delta opioid receptor
Outline: (§1)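 Radioligand competition binding at cloned human receptors: [³H]DAMGO for mu, [³H]DPDPE for delta, [³H]U69593 for kappa. Ki is the concentration giving half-maximal inhibition of tracer binding. Values are means of two independent, confirmatory experiments; only pIC50 differences up to 0.6 (SD < 0.5) were kept as reproducible.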

[2] = molecular target: T1, Delta-type opioid receptor; assay: Agonist potency assessed by [35S]GTP-gammaS binding assay in C6 Glioma cells expressing cloned human delta opioid receptor; assay type: functional, cell-based
Outline: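 Membranes expressing human δ-opioid receptors; agonism read as percent stimulation of [³⁵S]GTPγS binding against log molar ligand concentration. pEC₅₀ derived from three-parameter logistic curve fits.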

[3] = molecular target: Kappa-type opioid receptor (Homo sapiens, UniProt P41145); assay: Displacement of [3H]U-69593 from cloned human kappa opioid receptor; outline: as §1

| SMILES | Ki [1] | EC50 [2] | Ki [3] |
| --- | --- | --- | --- |
| CCNC(=O)N1CCC(c2ccccc2)(c2nccn2Cc2ccccc2)CC1 | 0.039 µM | 0.117 µM |  |
| COc1ccccc1NC(=O)N1CCC(c2ccccc2)(c2nccn2Cc2ccccc2)CC1 | 0.031 µM | 0.117 µM |  |
| CN(C(=O)N1CCC(c2ccccc2)(c2nccn2Cc2ccccc2)CC1)c1ccccc1 | 0.009 µM | 0.776 µM |  |
| O=S(=O)(Nc1ccccc1)N1CCC(c2ccccc2)(c2nccn2Cc2ccccc2)CC1 |  |  | 0.346 µM |
| O=C(Nc1cccc(F)c1)N1CCC(c2ccccc2)(c2nccn2Cc2ccccc2)CC1 | 0.029 µM |  |  |
| O=C(Nc1ccccc1)N1CCC(c2ccccc2)(c2nccn2Cc2ccccc2F)CC1 | 0.072 µM |  |  |
| CC(c1ccccc1)n1ccnc1C1(c2ccccc2)CCN(C(=O)Nc2ccccc2)CC1 (stereo not drawn) | 0.043 µM |  |  |
| COc1cccc(NC(=O)N2CCC(c3ccccc3)(c3nccn3Cc3ccccc3)CC2)c1 | 0.046 µM | 0.436 µM |  |
| O=C(Nc1ccccc1F)N1CCC(c2ccccc2)(c2nccn2Cc2ccccc2)CC1 | 0.029 µM |  |  |
